This note sets out measurements from patent publication US20260008770A1, “CBL-B INHIBITORS AND METHODS OF USES THEREOF” (Insilico Medicine IP Limited, priority 2022, published 2026).

The chains behind the UniProt entries cited, without tags or fusion partners.
UniProt Q13191, whole entry: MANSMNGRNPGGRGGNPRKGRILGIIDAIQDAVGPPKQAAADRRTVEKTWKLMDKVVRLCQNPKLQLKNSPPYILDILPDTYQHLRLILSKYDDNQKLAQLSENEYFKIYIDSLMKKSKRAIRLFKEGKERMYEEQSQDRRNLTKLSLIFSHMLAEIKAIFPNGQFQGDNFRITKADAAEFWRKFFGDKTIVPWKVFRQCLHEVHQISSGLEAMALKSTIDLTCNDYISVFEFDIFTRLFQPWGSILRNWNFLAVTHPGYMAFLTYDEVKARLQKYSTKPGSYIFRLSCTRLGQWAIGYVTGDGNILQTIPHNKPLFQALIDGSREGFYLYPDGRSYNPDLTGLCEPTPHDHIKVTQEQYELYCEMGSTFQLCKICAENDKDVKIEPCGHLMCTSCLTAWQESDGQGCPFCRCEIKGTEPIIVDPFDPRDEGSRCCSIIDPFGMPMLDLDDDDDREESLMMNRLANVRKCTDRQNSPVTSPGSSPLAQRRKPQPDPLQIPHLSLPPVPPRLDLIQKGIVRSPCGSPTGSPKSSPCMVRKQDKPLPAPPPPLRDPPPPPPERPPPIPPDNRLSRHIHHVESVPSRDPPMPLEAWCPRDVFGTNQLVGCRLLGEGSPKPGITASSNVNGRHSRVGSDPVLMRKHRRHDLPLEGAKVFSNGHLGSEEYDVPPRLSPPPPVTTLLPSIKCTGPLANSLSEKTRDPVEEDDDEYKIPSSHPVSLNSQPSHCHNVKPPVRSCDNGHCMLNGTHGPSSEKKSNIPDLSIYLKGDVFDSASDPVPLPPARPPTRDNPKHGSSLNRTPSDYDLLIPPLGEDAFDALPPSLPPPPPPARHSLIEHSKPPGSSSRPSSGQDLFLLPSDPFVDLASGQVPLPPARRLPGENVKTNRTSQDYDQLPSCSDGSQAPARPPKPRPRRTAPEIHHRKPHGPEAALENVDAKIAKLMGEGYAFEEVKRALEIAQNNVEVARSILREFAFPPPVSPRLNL

Some results are limits rather than exact numbers.

The target in the test is Cbl-b protein (CBL-B, GST-Tag) (Homo sapiens (Human), UniProt Q13191). Kind of test: HTRF based binding assay, affinity to Cbl-b protein. The note with it: fluorescence labeled Cbl-b binding probe. On the technique in general: Time-resolved FRET reads energy transfer from a long-lived donor to a nearby acceptor.

As a reminder, the IC50 is the point on the concentration scale where inhibition reaches its midpoint. Lower therefore signals higher potency. Regarding `CC1CC(c2cc(OCF)nc(-n3cnc4c(C(F)(F)F)cc(C(C)N5CCC[C@H](C)C5)cc4c3=O)c2)(c2nncn2C)C1` (some centres unmarked), the IC50 was < 20 nM.

`CC1CC(c2cccc(N3NCc4c(cc(CN5CCC[C@H](C)C5)cc4C(F)(F)F)C3=O)c2)(c2nncn2C)C1` (some centres unmarked): the IC50 fell in the range of 50 to 500 nM.
